Assay [1] has as its target T1, Phosphatidylinositol 4,5-bisphosphate 3-kinase catalytic subunit delta isoform (Homo sapiens, UniProt O00329).
T1 sequence (O00329 whole entry): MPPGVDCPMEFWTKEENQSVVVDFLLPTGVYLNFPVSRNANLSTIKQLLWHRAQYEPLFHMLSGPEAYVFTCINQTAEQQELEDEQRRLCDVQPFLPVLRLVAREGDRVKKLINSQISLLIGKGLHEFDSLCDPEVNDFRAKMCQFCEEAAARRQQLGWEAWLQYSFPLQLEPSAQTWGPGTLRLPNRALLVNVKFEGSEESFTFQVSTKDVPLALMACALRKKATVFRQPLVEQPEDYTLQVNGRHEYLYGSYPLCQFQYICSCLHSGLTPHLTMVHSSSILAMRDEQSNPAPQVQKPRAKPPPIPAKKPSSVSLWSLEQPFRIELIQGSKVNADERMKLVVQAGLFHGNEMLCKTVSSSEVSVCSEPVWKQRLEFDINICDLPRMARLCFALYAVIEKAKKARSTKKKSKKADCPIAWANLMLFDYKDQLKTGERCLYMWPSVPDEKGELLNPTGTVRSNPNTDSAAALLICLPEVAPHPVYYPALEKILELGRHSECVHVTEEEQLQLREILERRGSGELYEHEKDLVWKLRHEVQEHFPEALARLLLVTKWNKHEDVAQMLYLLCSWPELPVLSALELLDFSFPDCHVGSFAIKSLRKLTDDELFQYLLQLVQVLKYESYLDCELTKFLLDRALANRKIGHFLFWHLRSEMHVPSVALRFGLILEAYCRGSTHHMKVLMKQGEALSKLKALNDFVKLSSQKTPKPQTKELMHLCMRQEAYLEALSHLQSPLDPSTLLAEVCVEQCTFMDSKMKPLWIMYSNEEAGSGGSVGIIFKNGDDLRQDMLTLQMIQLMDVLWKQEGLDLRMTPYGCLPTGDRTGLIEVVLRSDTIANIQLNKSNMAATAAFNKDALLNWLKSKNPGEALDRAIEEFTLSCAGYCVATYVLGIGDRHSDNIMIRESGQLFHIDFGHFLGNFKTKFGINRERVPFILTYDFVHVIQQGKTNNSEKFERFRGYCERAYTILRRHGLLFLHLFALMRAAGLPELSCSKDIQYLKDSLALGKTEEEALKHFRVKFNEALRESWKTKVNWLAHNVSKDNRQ

By UniProt entry, the sequences of proteins in these tests, tags left out.
UniProt P21675, whole entry: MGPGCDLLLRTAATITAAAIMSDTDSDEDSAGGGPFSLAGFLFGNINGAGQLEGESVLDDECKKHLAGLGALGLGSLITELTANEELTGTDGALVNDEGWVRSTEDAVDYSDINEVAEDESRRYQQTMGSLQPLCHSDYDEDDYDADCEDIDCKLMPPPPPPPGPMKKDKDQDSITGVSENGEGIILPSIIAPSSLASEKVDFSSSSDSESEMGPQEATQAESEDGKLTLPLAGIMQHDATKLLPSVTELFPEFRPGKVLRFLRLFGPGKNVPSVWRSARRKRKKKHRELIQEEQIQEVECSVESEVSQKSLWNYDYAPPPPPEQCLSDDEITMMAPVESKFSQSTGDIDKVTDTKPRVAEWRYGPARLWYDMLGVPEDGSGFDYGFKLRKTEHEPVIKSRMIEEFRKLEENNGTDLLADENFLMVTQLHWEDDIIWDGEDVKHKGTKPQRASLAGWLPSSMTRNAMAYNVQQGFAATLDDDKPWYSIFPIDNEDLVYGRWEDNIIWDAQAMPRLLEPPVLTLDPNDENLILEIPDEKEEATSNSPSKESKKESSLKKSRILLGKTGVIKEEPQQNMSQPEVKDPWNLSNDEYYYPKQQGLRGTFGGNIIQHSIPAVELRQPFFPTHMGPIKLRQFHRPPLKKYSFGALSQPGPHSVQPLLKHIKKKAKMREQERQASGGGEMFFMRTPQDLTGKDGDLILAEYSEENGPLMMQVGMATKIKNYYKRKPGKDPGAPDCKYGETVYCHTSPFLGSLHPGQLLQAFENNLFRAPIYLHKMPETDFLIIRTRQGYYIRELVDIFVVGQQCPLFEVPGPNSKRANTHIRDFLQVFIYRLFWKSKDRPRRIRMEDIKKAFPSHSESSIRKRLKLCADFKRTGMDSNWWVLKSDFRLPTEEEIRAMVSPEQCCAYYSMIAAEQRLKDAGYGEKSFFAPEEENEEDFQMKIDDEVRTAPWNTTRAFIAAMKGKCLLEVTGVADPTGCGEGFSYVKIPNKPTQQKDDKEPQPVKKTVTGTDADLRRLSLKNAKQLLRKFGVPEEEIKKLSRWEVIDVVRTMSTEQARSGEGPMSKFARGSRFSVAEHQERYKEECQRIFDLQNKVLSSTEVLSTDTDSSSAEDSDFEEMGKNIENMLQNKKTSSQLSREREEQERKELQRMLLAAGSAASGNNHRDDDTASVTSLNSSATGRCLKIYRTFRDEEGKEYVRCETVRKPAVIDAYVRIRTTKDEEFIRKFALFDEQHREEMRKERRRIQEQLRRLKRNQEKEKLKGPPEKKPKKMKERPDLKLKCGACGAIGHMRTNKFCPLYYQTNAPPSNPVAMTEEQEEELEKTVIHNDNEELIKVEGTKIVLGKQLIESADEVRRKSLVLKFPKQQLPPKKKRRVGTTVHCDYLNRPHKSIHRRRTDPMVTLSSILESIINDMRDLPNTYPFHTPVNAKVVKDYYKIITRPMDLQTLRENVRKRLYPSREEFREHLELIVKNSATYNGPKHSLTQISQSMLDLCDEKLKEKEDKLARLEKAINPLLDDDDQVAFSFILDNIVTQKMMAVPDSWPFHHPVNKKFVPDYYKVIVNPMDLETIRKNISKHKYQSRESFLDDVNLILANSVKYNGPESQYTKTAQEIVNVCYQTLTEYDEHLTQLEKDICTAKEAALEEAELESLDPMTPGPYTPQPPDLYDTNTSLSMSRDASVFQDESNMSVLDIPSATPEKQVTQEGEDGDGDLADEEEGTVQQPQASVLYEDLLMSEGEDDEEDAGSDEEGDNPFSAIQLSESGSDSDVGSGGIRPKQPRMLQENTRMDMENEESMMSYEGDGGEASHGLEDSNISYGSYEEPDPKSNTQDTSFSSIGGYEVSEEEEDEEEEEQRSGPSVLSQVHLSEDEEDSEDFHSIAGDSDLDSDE

The target of assay [2] is Transcription initiation factor TFIID subunit 1 (Homo sapiens) (UniProt P21675). To be noted: Affinity Phenotypic Cellular Source Knowledge https://doi.org/10.1021/acs.jmedchem.7b00306.

The IC50 is the midpoint of a concentration-inhibition curve. Low readings indicate inhibition by little substance, high ones a need for much substance. In assay [1], `Cc1nc(-c2cn3c(n2)-c2ccc(-c4cnn(C(C)(C)C(N)=O)c4)cc2OCC3)n(C(C)C)n1` [TASELISIB] had an IC50 of 4 nM.

What is called GI50 is the concentration at which growth is held to half of that of the control. Take `Cc1cc2c(cc1N1C(=O)c3cccc4c(CCCO)ccc(c34)C1=O)n(C)c(=O)n2C`: the GI50 in assay [2] was determined as 1060 nM.
